Experimental data published in PubChem BioAssay (NCI).
Some results for these compounds are left out of this collection, so the calls shown say nothing about other tests.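 All cell lines were grown in 96-well plates and treated with compound for 48 hours. Here, GI50 denotes the concentration required for 50% inhibition of growth.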

Columns and labels:
Test in all cases: NCI-60 cell line screen, 48 h; in the data active = GI50 below about 0.43 µM; inactive = the rest
786-0 renal = test system: 786-0 renal
MDA-N = test system: MDA-N
M14 melanoma = test system: M14 melanoma
SK-OV-3 ovarian = test system: SK-OV-3 ovarian
KM12 colon = test system: KM12 colon
SK-MEL-28 melanoma = test system: SK-MEL-28 melanoma
UO-31 renal = test system: UO-31 renal
SF-268 CNS = test system: SF-268 CNS
NCI-H460 lung = test system: NCI-H460 lung
DU-145 prostate = test system: DU-145 prostate
HL-60(TB) leukemia = test system: HL-60(TB) leukemia
IGROV1 ovarian = test system: IGROV1 ovarian
SN12C renal = test system: SN12C renal
SK-MEL-2 melanoma = test system: SK-MEL-2 melanoma
NCI-H322M lung = test system: NCI-H322M lung
U251 CNS = test system: U251 CNS
OVCAR-3 ovarian = test system: OVCAR-3 ovarian
BT-549 breast = test system: BT-549 breast
K-562 leukemia = test system: K-562 leukemia
T-47D breast = test system: T-47D breast
NCI/ADR-RES ovarian = test system: NCI/ADR-RES ovarian
CAKI-1 renal = test system: CAKI-1 renal
SW-620 colon = test system: SW-620 colon
HCT-15 colon = test system: HCT-15 colon
CCRF-CEM leukemia = test system: CCRF-CEM leukemia
ACHN renal = test system: ACHN renal
COLO 205 colon = test system: COLO 205 colon
MCF7 breast = test system: MCF7 breast
HT29 colon = test system: HT29 colon
OVCAR-4 ovarian = test system: OVCAR-4 ovarian
TK-10 renal = test system: TK-10 renal
SF-295 CNS = test system: SF-295 CNS
HCT-116 colon = test system: HCT-116 colon
OVCAR-5 ovarian = test system: OVCAR-5 ovarian
HOP-92 NSCLC = test system: HOP-92 NSCLC
RXF 393 renal = test system: RXF 393 renal
OVCAR-8 ovarian = test system: OVCAR-8 ovarian
UACC-257 melanoma = test system: UACC-257 melanoma
SNB-75 CNS = test system: SNB-75 CNS
MALME-3M melanoma = test system: MALME-3M melanoma
MDA-MB-435 = test system: MDA-MB-435
PC-3 prostate = test system: PC-3 prostate
HCC-2998 colon = test system: HCC-2998 colon
NCI-H226 lung = test system: NCI-H226 lung
NCI-H23 lung = test system: NCI-H23 lung
EKVX NSCLC = test system: EKVX NSCLC
UACC-62 melanoma = test system: UACC-62 melanoma
SR leukemia = test system: SR leukemia
HS 578T breast = test system: HS 578T breast
A498 renal = test system: A498 renal
MDA-MB-231 breast = test system: MDA-MB-231 breast
RPMI-8226 leukemia = test system: RPMI-8226 leukemia
SK-MEL-5 melanoma = test system: SK-MEL-5 melanoma
LOX IMVI melanoma = test system: LOX IMVI melanoma
SF-539 CNS = test system: SF-539 CNS
NCI-H522 lung = test system: NCI-H522 lung
HOP-62 NSCLC = test system: HOP-62 NSCLC
A549 NSCLC = test system: A549 NSCLC
SNB-19 CNS = test system: SNB-19 CNS
MOLT-4 leukemia = test system: MOLT-4 leukemia

Measured: GI50

CN1CCC(OC(=O)C(O)(c2ccccc2)c2cccc3c2OC(C)(C)C3)CC1 (stereo not given)
inactive: 786-0 renal 80.8 µM | MDA-N 53.4 µM | M14 melanoma 17.1 µM | SK-OV-3 ovarian > 100 µM | KM12 colon 82 µM | SK-MEL-28 melanoma 19.6 µM | UO-31 renal 39.9 µM | SF-268 CNS 70.7 µM | NCI-H460 lung 45.5 µM | DU-145 prostate 88.6 µM | HL-60(TB) leukemia 29.8 µM | IGROV1 ovarian 26.1 µM | SN12C renal > 100 µM | SK-MEL-2 melanoma 47.2 µM | NCI-H322M lung > 100 µM | U251 CNS 60.4 µM | OVCAR-3 ovarian 63.8 µM | BT-549 breast 84.6 µM | K-562 leukemia 30.4 µM | T-47D breast 57.8 µM | NCI/ADR-RES ovarian 90.8 µM | CAKI-1 renal 77.8 µM | SW-620 colon > 100 µM | HCT-15 colon > 100 µM | CCRF-CEM leukemia 46.3 µM | ACHN renal 66.7 µM | COLO 205 colon 21 µM | MCF7 breast > 100 µM | HT29 colon 24.7 µM | OVCAR-4 ovarian 88.4 µM | TK-10 renal 63.2 µM | SF-295 CNS 59.7 µM | HCT-116 colon 50.4 µM | OVCAR-5 ovarian 87.6 µM | HOP-92 NSCLC 25.3 µM | RXF 393 renal 19.9 µM | OVCAR-8 ovarian 93.2 µM | UACC-257 melanoma 19.1 µM | SNB-75 CNS 20.2 µM | MALME-3M melanoma 19.5 µM | MDA-MB-435 = 44.9 µM | PC-3 prostate 44.4 µM | HCC-2998 colon 28.5 µM | NCI-H226 lung > 100 µM | NCI-H23 lung > 100 µM | EKVX NSCLC > 100 µM | UACC-62 melanoma 41.7 µM | SR leukemia 23.1 µM | HS 578T breast 22.8 µM | A498 renal 73.7 µM | MDA-MB-231 breast 39.3 µM | RPMI-8226 leukemia 29.5 µM | SK-MEL-5 melanoma 17.3 µM | LOX IMVI melanoma 29.7 µM | SF-539 CNS 34.9 µM | NCI-H522 lung 48.7 µM | HOP-62 NSCLC 100 µM | A549 NSCLC 95.8 µM | SNB-19 CNS > 100 µM | MOLT-4 leukemia 28.1 µM
